# According to ChEMBL document CHEMBL2218924, “A broad activity screen in support of a chemogenomic map for kinase signalling research and drug discovery” (Biochem J, 2013):
# Amino acid sequences for entries named in this document (tags omitted). A change or cut given only in a name is not applied to a line headed by its entry.
# UniProt P67870, whole entry, looked up: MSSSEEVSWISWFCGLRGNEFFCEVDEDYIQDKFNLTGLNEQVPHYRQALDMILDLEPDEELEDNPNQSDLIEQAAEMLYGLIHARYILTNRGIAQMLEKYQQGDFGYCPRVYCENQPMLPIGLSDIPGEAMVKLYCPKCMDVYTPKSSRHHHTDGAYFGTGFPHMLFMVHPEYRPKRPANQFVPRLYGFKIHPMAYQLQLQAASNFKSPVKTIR
# UniProt Q04912, whole entry: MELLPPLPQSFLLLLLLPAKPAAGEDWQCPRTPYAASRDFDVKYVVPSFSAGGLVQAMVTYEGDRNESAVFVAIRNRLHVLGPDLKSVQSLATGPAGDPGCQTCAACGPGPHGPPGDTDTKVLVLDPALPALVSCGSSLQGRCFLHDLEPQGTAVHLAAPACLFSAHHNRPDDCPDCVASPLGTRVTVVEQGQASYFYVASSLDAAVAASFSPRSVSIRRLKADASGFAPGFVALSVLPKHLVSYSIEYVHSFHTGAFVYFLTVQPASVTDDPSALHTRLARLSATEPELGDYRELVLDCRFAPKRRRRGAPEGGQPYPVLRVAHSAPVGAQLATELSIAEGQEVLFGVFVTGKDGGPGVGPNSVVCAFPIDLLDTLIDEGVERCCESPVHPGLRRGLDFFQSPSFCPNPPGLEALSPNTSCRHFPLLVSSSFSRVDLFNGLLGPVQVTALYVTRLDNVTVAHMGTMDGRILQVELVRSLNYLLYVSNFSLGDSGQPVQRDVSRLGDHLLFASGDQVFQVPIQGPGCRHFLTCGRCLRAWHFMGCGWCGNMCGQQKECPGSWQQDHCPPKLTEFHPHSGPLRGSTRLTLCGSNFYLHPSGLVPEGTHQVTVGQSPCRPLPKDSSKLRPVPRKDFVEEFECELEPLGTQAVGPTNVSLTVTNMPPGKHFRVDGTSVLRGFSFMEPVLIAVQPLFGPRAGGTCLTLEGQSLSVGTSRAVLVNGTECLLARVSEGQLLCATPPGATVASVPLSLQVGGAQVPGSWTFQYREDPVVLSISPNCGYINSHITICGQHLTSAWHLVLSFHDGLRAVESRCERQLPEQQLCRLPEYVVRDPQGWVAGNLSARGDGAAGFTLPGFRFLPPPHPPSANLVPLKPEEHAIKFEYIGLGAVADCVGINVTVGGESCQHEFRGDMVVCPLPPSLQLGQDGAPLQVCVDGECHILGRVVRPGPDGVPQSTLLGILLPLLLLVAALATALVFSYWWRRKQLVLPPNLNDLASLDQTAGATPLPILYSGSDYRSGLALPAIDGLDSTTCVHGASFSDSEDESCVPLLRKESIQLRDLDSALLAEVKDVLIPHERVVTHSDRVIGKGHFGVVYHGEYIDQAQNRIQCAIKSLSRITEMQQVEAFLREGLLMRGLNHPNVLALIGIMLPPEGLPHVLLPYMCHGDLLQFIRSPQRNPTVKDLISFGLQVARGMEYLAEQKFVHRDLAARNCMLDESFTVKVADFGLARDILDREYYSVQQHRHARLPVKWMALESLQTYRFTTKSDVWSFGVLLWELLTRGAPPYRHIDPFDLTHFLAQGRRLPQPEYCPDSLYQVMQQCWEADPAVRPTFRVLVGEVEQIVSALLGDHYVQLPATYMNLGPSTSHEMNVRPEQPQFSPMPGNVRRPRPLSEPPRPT
# UniProt P42680: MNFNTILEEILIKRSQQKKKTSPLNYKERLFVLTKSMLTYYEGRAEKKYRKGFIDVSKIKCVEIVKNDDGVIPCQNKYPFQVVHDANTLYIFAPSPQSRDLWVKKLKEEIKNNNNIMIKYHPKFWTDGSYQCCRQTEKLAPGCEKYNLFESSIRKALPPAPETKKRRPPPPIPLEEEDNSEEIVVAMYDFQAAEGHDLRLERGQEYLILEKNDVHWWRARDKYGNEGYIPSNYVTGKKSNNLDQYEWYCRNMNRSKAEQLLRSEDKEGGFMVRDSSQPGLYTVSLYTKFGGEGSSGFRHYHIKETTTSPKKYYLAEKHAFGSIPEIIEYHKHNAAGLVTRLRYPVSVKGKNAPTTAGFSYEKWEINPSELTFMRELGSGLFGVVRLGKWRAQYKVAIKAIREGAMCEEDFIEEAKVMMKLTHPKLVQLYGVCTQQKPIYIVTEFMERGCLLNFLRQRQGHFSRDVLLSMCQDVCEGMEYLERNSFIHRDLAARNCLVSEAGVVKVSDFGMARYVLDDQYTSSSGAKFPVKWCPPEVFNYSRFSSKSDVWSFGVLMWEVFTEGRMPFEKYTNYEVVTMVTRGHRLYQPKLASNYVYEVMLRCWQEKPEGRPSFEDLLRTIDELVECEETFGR
# UniProt Q9Y3S1: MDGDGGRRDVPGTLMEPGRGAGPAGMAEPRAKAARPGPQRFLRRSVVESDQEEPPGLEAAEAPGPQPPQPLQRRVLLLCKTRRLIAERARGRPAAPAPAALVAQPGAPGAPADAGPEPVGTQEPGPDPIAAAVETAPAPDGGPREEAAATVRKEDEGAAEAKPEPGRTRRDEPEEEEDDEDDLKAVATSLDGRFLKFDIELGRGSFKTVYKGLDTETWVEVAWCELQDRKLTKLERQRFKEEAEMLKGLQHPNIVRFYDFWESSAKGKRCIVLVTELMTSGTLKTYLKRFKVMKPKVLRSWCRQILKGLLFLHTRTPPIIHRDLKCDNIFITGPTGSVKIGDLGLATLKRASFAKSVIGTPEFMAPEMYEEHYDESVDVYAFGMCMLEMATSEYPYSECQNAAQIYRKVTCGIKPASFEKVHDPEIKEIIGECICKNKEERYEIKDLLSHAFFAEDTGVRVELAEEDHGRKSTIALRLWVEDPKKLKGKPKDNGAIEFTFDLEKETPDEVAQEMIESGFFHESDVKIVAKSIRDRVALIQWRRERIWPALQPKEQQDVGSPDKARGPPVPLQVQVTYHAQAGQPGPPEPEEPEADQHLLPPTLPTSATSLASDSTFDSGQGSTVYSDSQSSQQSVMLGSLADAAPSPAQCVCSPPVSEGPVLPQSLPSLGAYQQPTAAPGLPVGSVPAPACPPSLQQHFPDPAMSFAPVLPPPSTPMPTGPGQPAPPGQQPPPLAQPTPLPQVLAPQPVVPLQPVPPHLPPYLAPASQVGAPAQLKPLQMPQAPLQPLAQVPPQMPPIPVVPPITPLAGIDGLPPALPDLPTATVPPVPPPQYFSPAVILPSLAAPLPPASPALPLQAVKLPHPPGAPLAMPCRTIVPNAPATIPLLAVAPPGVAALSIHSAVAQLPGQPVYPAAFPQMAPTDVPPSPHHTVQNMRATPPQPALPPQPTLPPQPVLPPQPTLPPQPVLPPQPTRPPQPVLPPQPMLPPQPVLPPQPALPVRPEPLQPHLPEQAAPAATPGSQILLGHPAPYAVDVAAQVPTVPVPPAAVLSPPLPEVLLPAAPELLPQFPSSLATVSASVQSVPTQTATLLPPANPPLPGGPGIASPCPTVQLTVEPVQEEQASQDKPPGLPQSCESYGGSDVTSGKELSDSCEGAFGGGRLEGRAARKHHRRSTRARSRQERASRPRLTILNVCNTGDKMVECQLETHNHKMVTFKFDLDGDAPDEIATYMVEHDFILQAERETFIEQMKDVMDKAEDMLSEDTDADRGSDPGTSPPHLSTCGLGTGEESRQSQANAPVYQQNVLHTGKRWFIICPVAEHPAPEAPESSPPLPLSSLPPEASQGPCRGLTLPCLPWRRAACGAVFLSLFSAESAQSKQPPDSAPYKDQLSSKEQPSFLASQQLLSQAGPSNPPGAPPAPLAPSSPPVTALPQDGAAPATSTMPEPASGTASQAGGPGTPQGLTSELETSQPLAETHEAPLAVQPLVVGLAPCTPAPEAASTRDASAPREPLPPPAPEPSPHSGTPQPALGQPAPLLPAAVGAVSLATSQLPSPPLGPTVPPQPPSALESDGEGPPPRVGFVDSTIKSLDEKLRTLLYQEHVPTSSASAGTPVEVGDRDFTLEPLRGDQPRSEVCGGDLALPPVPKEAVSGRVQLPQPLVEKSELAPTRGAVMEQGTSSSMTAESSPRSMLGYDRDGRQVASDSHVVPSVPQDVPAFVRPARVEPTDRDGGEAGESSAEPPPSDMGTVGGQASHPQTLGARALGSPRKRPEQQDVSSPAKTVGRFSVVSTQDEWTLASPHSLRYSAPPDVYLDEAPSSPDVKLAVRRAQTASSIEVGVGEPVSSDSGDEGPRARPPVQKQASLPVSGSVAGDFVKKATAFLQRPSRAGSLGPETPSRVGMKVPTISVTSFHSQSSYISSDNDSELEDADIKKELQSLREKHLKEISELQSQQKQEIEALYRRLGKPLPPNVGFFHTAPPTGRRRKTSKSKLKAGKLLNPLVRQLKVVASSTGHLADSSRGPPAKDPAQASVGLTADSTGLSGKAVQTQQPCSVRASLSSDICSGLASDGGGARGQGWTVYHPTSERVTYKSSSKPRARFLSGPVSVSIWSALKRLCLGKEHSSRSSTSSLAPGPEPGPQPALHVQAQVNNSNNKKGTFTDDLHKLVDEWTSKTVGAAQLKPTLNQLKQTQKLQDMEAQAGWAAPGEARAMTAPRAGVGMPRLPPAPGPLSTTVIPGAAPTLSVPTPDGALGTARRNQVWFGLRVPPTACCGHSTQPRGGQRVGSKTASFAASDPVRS
# UniProt P05771, whole entry, looked up: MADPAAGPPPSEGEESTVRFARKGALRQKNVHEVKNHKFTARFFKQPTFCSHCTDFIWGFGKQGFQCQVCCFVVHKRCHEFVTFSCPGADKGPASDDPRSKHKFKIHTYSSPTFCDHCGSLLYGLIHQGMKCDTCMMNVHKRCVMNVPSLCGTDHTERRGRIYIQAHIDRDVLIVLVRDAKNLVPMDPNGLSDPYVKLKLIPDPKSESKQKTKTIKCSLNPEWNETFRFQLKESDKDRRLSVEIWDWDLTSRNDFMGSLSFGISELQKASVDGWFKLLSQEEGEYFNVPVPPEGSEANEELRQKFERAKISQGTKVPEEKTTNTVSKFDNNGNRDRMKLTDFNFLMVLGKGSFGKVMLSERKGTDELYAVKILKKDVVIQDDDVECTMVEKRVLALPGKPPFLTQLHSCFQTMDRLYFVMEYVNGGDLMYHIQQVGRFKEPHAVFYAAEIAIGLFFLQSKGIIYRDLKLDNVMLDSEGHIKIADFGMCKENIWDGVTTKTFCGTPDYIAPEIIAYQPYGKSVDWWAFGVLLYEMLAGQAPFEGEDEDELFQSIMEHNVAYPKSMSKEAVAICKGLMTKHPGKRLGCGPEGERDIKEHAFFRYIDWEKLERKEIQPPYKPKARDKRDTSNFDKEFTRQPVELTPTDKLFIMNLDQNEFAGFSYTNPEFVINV
# UniProt Q15303, whole entry: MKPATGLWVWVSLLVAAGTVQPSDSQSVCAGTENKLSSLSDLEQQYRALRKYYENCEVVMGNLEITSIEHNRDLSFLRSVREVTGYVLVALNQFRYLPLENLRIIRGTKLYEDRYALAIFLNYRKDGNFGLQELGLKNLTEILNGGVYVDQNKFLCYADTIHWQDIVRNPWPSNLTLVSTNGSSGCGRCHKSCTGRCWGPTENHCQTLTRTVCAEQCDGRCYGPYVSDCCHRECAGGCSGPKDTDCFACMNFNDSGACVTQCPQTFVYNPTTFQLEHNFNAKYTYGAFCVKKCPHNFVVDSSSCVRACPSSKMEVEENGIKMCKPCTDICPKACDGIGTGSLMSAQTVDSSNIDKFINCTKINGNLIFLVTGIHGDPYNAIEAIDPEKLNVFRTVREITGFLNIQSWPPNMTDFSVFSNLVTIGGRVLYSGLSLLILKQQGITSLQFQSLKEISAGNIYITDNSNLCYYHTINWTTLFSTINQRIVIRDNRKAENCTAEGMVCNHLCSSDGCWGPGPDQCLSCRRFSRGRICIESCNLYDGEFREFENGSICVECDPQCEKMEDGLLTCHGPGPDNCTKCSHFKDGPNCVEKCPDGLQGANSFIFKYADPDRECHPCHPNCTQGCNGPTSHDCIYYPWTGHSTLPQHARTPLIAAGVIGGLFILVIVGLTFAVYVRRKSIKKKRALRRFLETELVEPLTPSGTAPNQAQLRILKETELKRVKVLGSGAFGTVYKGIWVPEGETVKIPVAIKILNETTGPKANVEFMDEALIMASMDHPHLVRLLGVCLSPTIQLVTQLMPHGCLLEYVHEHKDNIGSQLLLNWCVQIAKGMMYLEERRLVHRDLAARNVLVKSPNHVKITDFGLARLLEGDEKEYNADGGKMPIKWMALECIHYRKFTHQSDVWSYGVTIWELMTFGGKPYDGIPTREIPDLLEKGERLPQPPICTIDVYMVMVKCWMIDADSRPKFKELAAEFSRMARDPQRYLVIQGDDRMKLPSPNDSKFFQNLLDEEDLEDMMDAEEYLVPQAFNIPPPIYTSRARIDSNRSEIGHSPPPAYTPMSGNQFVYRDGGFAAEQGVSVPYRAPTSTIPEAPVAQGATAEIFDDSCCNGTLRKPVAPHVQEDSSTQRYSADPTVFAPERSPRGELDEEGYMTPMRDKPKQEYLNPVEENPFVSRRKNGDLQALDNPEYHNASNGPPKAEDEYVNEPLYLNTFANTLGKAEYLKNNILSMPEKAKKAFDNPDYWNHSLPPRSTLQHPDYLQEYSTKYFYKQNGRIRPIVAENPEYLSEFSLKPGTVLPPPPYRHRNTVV
# For some of these results: The strong results were mostly taken out for another list; the other results follow. No cut-off for these calls is given here. The entries are a selection whose mix differs from that of the whole data set.
# Legend:
# [1] = target: Epidermal growth factor receptor (Homo sapiens) (UniProt P00533); conditions: at 1 µM
# [2] = target: Epidermal growth factor receptor (Homo sapiens) (UniProt P00533); conditions: at 10 µM
# [3] = target: T1, Eukaryotic elongation factor 2 kinase (Homo sapiens) (UniProt O00418); conditions: at 1 µM
# T1 sequence (whole entry): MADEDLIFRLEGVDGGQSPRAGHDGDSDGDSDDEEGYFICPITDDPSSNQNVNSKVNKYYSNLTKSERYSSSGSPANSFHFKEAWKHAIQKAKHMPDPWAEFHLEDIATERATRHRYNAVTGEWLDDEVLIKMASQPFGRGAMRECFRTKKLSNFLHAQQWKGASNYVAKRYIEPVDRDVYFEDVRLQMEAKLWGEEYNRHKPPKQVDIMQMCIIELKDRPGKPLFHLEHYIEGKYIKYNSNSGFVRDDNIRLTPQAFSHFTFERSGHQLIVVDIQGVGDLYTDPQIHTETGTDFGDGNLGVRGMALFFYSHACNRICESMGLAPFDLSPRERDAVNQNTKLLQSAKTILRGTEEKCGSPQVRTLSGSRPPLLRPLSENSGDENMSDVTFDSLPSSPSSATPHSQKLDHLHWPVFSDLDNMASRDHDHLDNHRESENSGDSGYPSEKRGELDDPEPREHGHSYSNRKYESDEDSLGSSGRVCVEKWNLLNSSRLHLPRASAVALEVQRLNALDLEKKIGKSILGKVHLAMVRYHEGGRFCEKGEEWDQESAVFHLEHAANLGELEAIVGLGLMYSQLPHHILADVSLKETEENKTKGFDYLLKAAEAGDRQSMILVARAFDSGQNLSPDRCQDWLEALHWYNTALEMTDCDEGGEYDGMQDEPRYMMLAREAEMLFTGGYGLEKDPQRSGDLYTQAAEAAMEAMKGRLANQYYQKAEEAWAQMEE
# [4] = target: T1, Eukaryotic elongation factor 2 kinase (Homo sapiens); conditions: at 10 µM
# [5] = target: CDK9/cyclin T1 (Homo sapiens) (UniProt O60563+P50750); conditions: at 10 µM
# [6] = target: Casein kinase I isoform gamma-1 (Homo sapiens) (UniProt Q9HCP0); conditions: at 1 µM
# [7] = target: Casein kinase II (Homo sapiens) (UniProt P67870+P68400+P19784); conditions: at 1 µM;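 note: residual kinase activity expressed relative to control, in HEPES buffer at pH 7.6 with NaCl, EDTA, DTT and Triton X-100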
# [8] = target: Ephrin type-A receptor 7 (Homo sapiens) (UniProt Q15375); conditions: at 10 µM
# [9] = target: Macrophage colony-stimulating factor 1 receptor (Homo sapiens) (UniProt P07333); conditions: at 10 µM
# [10] = target: Macrophage-stimulating protein receptor (Homo sapiens) (UniProt Q04912); conditions: at 10 µM
# [11] = target: Serine/threonine-protein kinase Sgk2 (Homo sapiens) (UniProt Q9HBY8); conditions: at 1 µM
# [12] = target: Serine/threonine-protein kinase SIK1 (Homo sapiens) (UniProt P57059); conditions: at 1 µM
# [13] = target: Tyrosine-protein kinase SYK (Homo sapiens) (UniProt P43405); conditions: at 10 µM
# [14] = target: Mitogen-activated protein kinase kinase kinase 7 (Homo sapiens) (UniProt O43318); conditions: at 1 µM
# [15] = target: Serine/threonine-protein kinase 10 (Homo sapiens) (UniProt O94804); conditions: at 1 µM
# [16] = target: Tyrosine-protein kinase Tec (Homo sapiens) (UniProt P42680); conditions: at 10 µM
# [17] = target: Serine/threonine-protein kinase WNK2 (Homo sapiens) (UniProt Q9Y3S1); conditions: at 10 µM
# [18] = target: Tyrosine-protein kinase Yes (Homo sapiens) (UniProt P07947); conditions: at 10 µM
# [19] = target: RAF proto-oncogene serine/threonine-protein kinase (Homo sapiens) (UniProt P04049); conditions: at 1 µM
# [20] = target: Proto-oncogene tyrosine-protein kinase Src (Homo sapiens) (UniProt P12931); conditions: at 1 µM
# [21] = target: Serine/threonine-protein kinase mTOR (Homo sapiens) (UniProt P42345); conditions: at 1 µM
# [22] = target: Serine/threonine-protein kinase Nek6 (Homo sapiens) (UniProt Q9HC98); conditions: at 10 µM
# [23] = target: ALK tyrosine kinase receptor (Homo sapiens) (UniProt Q9UM73); conditions: at 1 µM
# [24] = target: Activin receptor type-1B (Homo sapiens) (UniProt P36896); conditions: at 10 µM
# [25] = target: NUAK family SNF1-like kinase 1 (Homo sapiens) (UniProt O60285); conditions: at 10 µM
# [26] = target: cAMP-dependent protein kinase catalytic subunit alpha (Homo sapiens) (UniProt P17612); conditions: at 1 µM
# [27] = target: Protein kinase C beta type (Homo sapiens) (UniProt P05771); conditions: at 10 µM
# [28] = target: Homeodomain-interacting protein kinase 3 (Homo sapiens) (UniProt Q9H422); conditions: at 1 µM
# [29] = target: Mitogen-activated protein kinase 8 (Homo sapiens) (UniProt P45983); conditions: at 1 µM
# [30] = target: Mitogen-activated protein kinase 8 (Homo sapiens) (UniProt P45983); conditions: at 10 µM
# [31] = target: Protein kinase C alpha type (Homo sapiens) (UniProt P17252); conditions: at 1 µM
# [32] = target: Protein kinase C alpha type (Homo sapiens) (UniProt P17252); conditions: at 10 µM
# [33] = target: Receptor tyrosine-protein kinase erbB-4 (Homo sapiens) (UniProt Q15303); conditions: at 10 µM
# [34] = target: Ribosomal protein S6 kinase alpha-5 (Homo sapiens) (UniProt O75582); conditions: at 1 µM
# [35] = target: cAMP-dependent protein kinase catalytic subunit alpha (Homo sapiens) (UniProt P17612); conditions: at 10 µM
compound,measurement,setting,value
COC(=O)[C@@]1(O)C[C@H]2O[C@]1(C)n1c3ccccc3c3c4c(c5c6ccccc6n2c5c31)C(=O)NC4,residual activity,[1],72%
same,residual activity,[2],47%
same,residual activity,[3],inactive: 124%
same,residual activity,[4],115%
O=C1Nc2ccc3ncsc3c2/C1=C/c1c[nH]cn1,residual activity,[1],116%
same,residual activity,[3],inactive: 79%
same,residual activity,[4],97%
O=C1c2ccccc2-c2nc3nnnn3nc21,residual activity,[5],94%
same,residual activity,[6],91%
same,residual activity,[7],97%
same,residual activity,[1],126%
same,residual activity,[2],121%
same,residual activity,[8],96%
same,residual activity,[9],92%
same,residual activity,[10],92%
same,residual activity,[11],94%
same,residual activity,[12],98%
same,residual activity,[13],97%
same,residual activity,[14],99%
same,residual activity,[15],98%
same,residual activity,[16],86%
same,residual activity,[17],89%
same,residual activity,[18],90%
same,residual activity,[19],87%
same,residual activity,[20],85%
same,residual activity,[3],inactive: 95%
same,residual activity,[4],109%
same,residual activity,[21],93%
same,residual activity,[22],99%
same,residual activity,[23],96%
same,residual activity,[24],91%
same,residual activity,[25],93%
same,residual activity,[26],95%
same,residual activity,[27],88%
CCn1cnc2c(Nc3cccc(Cl)c3)nc(N[C@@H]3CCCC[C@@H]3N)nc21,residual activity,[4],138%
O=c1[nH]c2ccccc2n1C1CCN(Cc2ccc(-c3nc4cc5[nH]cnc5cc4nc3-c3ccccc3)cc2)CC1,residual activity,[1],105%
same,residual activity,[2],106%
same,residual activity,[3],inactive: 105%
O=[N+]([O-])/C=C/c1ccc2c(c1)OCO2,residual activity,[1],132%
same,residual activity,[2],114%
same,residual activity,[3],inactive: 89%
same,residual activity,[4],106%
CC(C)[C@H](CO)Nc1nc(Nc2cccc(Cl)c2)c2ncn(C(C)C)c2n1,residual activity,[2],95%
same,residual activity,[28],101%
COc1cc(OC)c(/C=C2\C(=O)Nc3ccccc32)c(OC)c1,residual activity,[29],94%
same,residual activity,[30],84%
same,residual activity,[3],inactive: 97%
same,residual activity,[4],99%
same,residual activity,[31],104%
same,residual activity,[32],90%
CO[C@H]1[C@@H](OC)C[C@H](C)[C@@H](OC)C2=CC(=O)C=C(NC(=O)/C(C)=C/C=C/[C@H](OC)[C@@H](OC(N)=O)/C(C)=C/[C@@H]1C)C2=O,residual activity,[1],108%
same,residual activity,[2],115%
COc1cc2ncnc(Nc3ccc(OCc4ccccc4)cc3)c2cc1OC,residual activity,[1],-3%
same,residual activity,[2],-3%
same,residual activity,[33],-3%
same,residual activity,[34],140%
same,residual activity,[3],inactive: 87%
same,residual activity,[4],142%
same,residual activity,[35],141%
CC(C)(C)c1cc(C=C(C#N)C#N)cc(Br)c1O,residual activity,[1],118%
same,residual activity,[2],116%
same,residual activity,[4],118%
CCc1nc(-c2ccc(OC)cc2)[nH]c1-c1ccncc1,residual activity,[1],114%
same,residual activity,[2],106%
